Test results from US20100286181A1, “PYRROLE DERIVATIVES WITH ANTIBACTERIAL ACTIVITY” (ASTRAZENECA AB, priority 2006, published 2010).

Biological target: GyrB ATPase activity (E. coli GyrA, E. coli GyrB) (Escherichia coli, UniProt P0AES6)
Assay: GyrB ATPase inhibition activity assay (ammonium molybdate/malachite green phosphate detection)
Format: biochemical
Settings: figure quoted may be an average of two or more results
Description: Compounds may be tested for inhibition of GyrB ATPase activity using an ammonium molybdate/malachite green-based phosphate detection assay (Lanzetta, P. A., L. J. Alvarez, P. S. Reinach, and O. A. Candia, 1979, 100: 95-97). Assays can be performed in multiwell plates in 100 μl reactions containing: 50 mM HEPES buffer pH 7.5, 75 mM ammonium acetate, 5.5 mM magnesium chloride, 0.5 mM ethylenediaminetetraacetic acid, 5% glycerol, 1 mM 1,4-Dithio-DL-threitol, 200 nM bovine serum albumin, 5 μg/ml sheared salmon sperm DNA, 2.5 nM E. coli GyrA, 2.5 nM E. coli GyrB, 250 μM ATP, and compound in dimethylsulfoxide. Reactions can be quenched with 150 μl of ammonium molybdate/malachite green detection reagent containing 1.2 mM malachite green hydrochloride, 8.5 mM ammonium molybdate tetrahydrate, and 1 M hydrochloric acid. Plates can be read in an absorbance plate reader at 650 nm and percent inhibition values may be calculated using dimethylsulfoxide (2%)-containing reactions as 0% inhibition and novobiocin-containing (2 μM) reactions as 100% inhibition controls. Compound potency can be based on IC50 measurements determined from reactions performed in the presence of 10 different compound concentrations.
Compound potency may be based on IC50 measurements determined from reactions performed in the presence of 10 different compound concentrations. Compounds of the Examples could be expected to have IC50 values of <200 μg/ml in one or both assays described herein above. For Example the following results were obtained in a GyrB ATPase inhibition activity assay substantially similar to the above wherein the figure quoted may be an average of two or more results

Substance	IC50
2-[(3R,6r,11R)-11-{[(3,4-Dichloro-5-methyl-1H-pyrrol-2-yl)carbonyl]amino}-3-(hydroxymethyl)-1,5-dioxa-8-azaspiro[5.5]undec-8-yl]-1,3-thiazole-5-carboxylic acid and 2-[(3S,6s,11R)-11-{[(3,4-dichloro-5-methyl-1H-pyrrol-2-yl)carbonyl]amino}-3-(hydroxymethyl)-1,5-dioxa-8-azaspiro[5.5]undec-8-yl]-1,3-thiazole-5-carboxylic acid (1:1) [Example 54]	< 9.77 nM
Methyl 2-[(3R,6r,11R)-11-{[(3,4-dichloro-5-methyl-1H-pyrrol-2-yl)carbonyl]amino}-3-(hydroxymethyl)-1,5-dioxa-8-azaspiro[5.5]undec-8-yl]-1,3-thiazole-5-carboxylate and methyl 2-[(3S,6s,11R)-11-{[(3,4-dichloro-5-methyl-1H-pyrrol-2-yl)carbonyl]amino}-3-(hydroxymethyl)-1,5-dioxa-8-azaspiro[5.5]undec-8-yl]-1,3-thiazole-5-carboxylate (1:1) [Example 61]	< 9.77 nM
2-((3S,6s,11R)-11-{[(3,4-Dichloro-5-methyl-1H-pyrrol-2-yl)carbonyl]amino}-3-ethoxy-1,5-dioxa-8-azaspiro[5.5]undec-8-yl)-1,3-thiazole-5-carboxylic acid and 2-((3R,6r,11R)-11-{[(3,4-Dichloro-5-methyl-1H-pyrrol-2-yl)carbonyl]amino}-3-ethoxy-1,5-dioxa-8-azaspiro[5.5]undec-8-yl)-1,3-thiazole-5-carboxylic acid (1:1) [Example 51]	< 122 nM
